Consider one substance from patent US20170157260A1, “Glycosylated Polypeptide and Drug Composition Containing said Polypeptide” (Glytech, Inc., priority 2011, published 2017).

The experiment deals with growth hormone (GH) production. The experiment can be described thus: GH production suppression test with rats. The format is in vivo. As to conditions: Table 8 (Example 87), dose 10 nmol/kg, vehicle 1012.

For the substance C(disialo)-R-K-SRIF14 [Example 18], the “GH” value stood at 30 ng/mL.
